{
  "source": "ChEMBL document CHEMBL1649124",
  "about": "“Genetic variability among ampC genes from acinetobacter genomic species 3” (Antimicrob Agents Chemother, 2009)",
  "settings_in_all_cases": "Acinetobacter pittii",
  "key": {"[1]": {"system": "C[C@@H](O)[C@H]1C(=O)N2C(C(=O)O)=C(SCCNC=N)C[C@H]12", "assay": "Activity of Acinetobacter genomosp. 3 isolate 65 ADC-14"}, "[2]": {"system": "C[C@@H](O)[C@H]1C(=O)N2C(C(=O)O)=C(SCCNC=N)C[C@H]12", "assay": "Ratio of Kcat to Km for Acinetobacter genomosp. 3 isolate 65 ADC-14"}, "[3]": {"system": "C[C@@H](O)[C@H]1C(=O)N2C(C(=O)O)=C(SCCNC=N)C[C@H]12", "assay": "Activity of Acinetobacter genomosp. 3 isolate 103 ADC-16"}, "[4]": {"system": "C[C@@H](O)[C@H]1C(=O)N2C(C(=O)O)=C(SCCNC=N)C[C@H]12", "assay": "Ratio of Kcat to Km for Acinetobacter genomosp. 3 isolate 103 ADC-16"}, "[5]": {"system": "C[C@H]1[C@H](NC(=O)/C(=N\\OC(C)(C)C(=O)O)c2csc(N)n2)C(=O)N1S(=O)(=O)O", "assay": "(§1) Activity of Acinetobacter genomosp. 3 isolate 195 ADC-18"}, "[6]": {"system": "CO/N=C(\\C(=O)N[C@@H]1C(=O)N2C(C(=O)O)=C(COC(C)=O)CS[C@H]12)c1csc(N)n1", "assay": "as §1"}, "[7]": {"system": "C[C@@H](O)[C@H]1C(=O)N2C(C(=O)O)=C(SCCNC=N)C[C@H]12", "assay": "as §1"}, "[8]": {"system": "CC(C)(O/N=C(\\C(=O)N[C@@H]1C(=O)N2C(C(=O)[O-])=C(C[n+]3ccccc3)CS[C@H]12)c1csc(N)n1)C(=O)O", "assay": "(§2) Ratio of Kcat to Km for Acinetobacter genomosp. 3 isolate 195 ADC-18"}, "[9]": {"system": "CO/N=C(\\C(=O)N[C@@H]1C(=O)N2C(C(=O)O)=C(COC(C)=O)CS[C@H]12)c1csc(N)n1", "assay": "as §2"}, "[10]": {"system": "C[C@@H](O)[C@H]1C(=O)N2C(C(=O)O)=C(SCCNC=N)C[C@H]12", "assay": "as §2"}},
  "data": [
    {"substance": "ADC-14 protein (Acinetobacter genomosp. 3) (from UniProt Q0VTR6)", "values": [
      {"measurement": "Km", "setting": "[1]", "result": 2.29, "unit": "µM"},
      {"measurement": "kcat", "setting": "[1]", "result": 0.003, "unit": "s⁻¹"},
      {"measurement": "kcat/Km", "setting": "[2]", "result": 1310, "unit": "M⁻¹ s⁻¹"}
    ]},
    {"substance": "ADC-16 protein (Acinetobacter genomosp. 3) (from UniProt Q0VTR8)", "values": [
      {"measurement": "Km", "setting": "[3]", "result": 2.56, "unit": "µM"},
      {"measurement": "kcat", "setting": "[3]", "result": 0.004, "unit": "s⁻¹"},
      {"measurement": "kcat/Km", "setting": "[4]", "result": 220, "unit": "M⁻¹ s⁻¹"}
    ]},
    {"substance": "ADC-18 protein (Acinetobacter genomosp. 3) (from UniProt Q0VTS0)", "values": [
      {"measurement": "Km", "setting": "[5]", "result": 4.54, "unit": "µM"},
      {"measurement": "Km", "setting": "[6]", "result": 0.2, "unit": "µM"},
      {"measurement": "kcat", "setting": "[6]", "result": 0.06, "unit": "s⁻¹"},
      {"measurement": "Km", "setting": "[7]", "result": 2.51, "unit": "µM"},
      {"measurement": "kcat", "setting": "[7]", "result": 0.02, "unit": "s⁻¹"},
      {"measurement": "kcat/Km", "setting": "[8]", "result": 307000, "unit": "M⁻¹ s⁻¹"},
      {"measurement": "kcat/Km", "setting": "[9]", "result": 307000, "unit": "M⁻¹ s⁻¹"},
      {"measurement": "kcat/Km", "setting": "[10]", "result": 250, "unit": "M⁻¹ s⁻¹"}
    ]}
  ]
}
